Data reported in patent publication US20260382690A1, “Dual-Domain Peptide for Depleting HMGB1 from the Circulation via Liver HSPG System” (published 2026).

Tested on: plasma HMGB1
Assay: Plasma HMGB1 by ELISA in treated SS mice
Conditions: 2.72 mg/kg/d, subcutaneous, 3 weeks; mean±SD; SS+PBS 26.6±14.7, AA 11.0±4.6
Experimental: Effects of hE-HMGB1-BP on vasodilation, eNOS-dependent vasodilation, and plasma HMGB1. Townes SS mice were treated daily with hE-HMGB1-BP (Biomatik Corp., Kitchener, Ontario; 2.72 mg/kg/d, subcutaneous injection) for three weeks. On the day of the vasodilation studies, mice were anesthetized with isoflurane (1-3%), subjected to thoracotomy, and euthanized by exsanguination. A hypodermic needle was inserted into the heart's right side, and blood was drawn into EDTA. Plasma was separated by centrifugation. The plasma was divided into aliquots and stored at −80 °C until analysis for HMGB1 using ELISA kits from Tecan (30164033, Männedorf, Switzerland) as described. Facialis arteries were isolated by microdissection, cannulated, and pressurized to 60 mmHg. Changes in vasodilation of (5Z)-7-[(1R,4S,5S,6R)-6-[(1E,3S)-3-hydroxy-1-octenyl]-2-oxabicyclo[2.2.1]hept-5-yl]-5-heptenoic acid (U46619)-preconstricted, pressurized facialis arteries were determined by video microscopy in response to acetylcholine (Ach) (10-7-10-4 M) as before. […] The area between vasodilation curves in the absence and presence of L-NAME was calculated using the area under the curve function in Prism GraphPad 9.5.0 after correction of paired data for negative relaxation responses. […]

Q: With `CC[C@H](C)[C@H](NC(=O)CNC(=O)[C@H](CCCCN)NC(=O)[C@@H](NC(=O)[C@H](CC(=O)O)NC(=O)[C@H](Cc1ccccc1)NC(=O)[C@H](CC(N)=O)NC(=O)[C@H](CC(N)=O)NC(=O)[C@H](C)NC(=O)[C@H](CO)NC(=O)[C@H](Cc1c[nH]cn1)NC(=O)[C@H](C)NC(=O)CNC(=O)CNC(=O)[C@H](CCCNC(=N)N)NC(=O)[C@H](CC(C)C)NC(=O)[C@H](CC(C)C)NC(=O)[C@H](CCCNC(=N)N)NC(=O)[C@H](CCCCN)NC(=O)[C@H](CCCNC(=N)N)NC(=O)[C@H](CC(C)C)NC(=O)[C@H](CCCCN)NC(=O)[C@H](CCCNC(=N)N)NC(=O)[C@H](CC(C)C)NC(C)=O)C(C)C)C(N)=O` as the molecule, how does the “plasma HMGB1 concentration” value read?
A: 14.2 ± 6.0 ng/mL
